Curated experimental data: water solubility values

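OPERA's authors assembled the values from existing databases and did not measure them anew. The files give a single number for a compound and property, which may rest on several reports. How each value was measured is not recorded, so precision varies. Where a salt, mixture or single isomer is drawn, the source does not say that exactly this form was tested. Some upstream entries may be estimates or bounds without being marked so.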

Solubility in water is on a log10 molar scale (set defined at 25 °C). Cells with "n/a" have no entry in this list.

For CCCCCNCCOC(=O)c1ccc(N)cc1 [Naepaine] the data give log solubility -3.27 (log10 mol/L). O=C(O)C1c2ccccc2C(C(=O)O)c2ccccc21 (centres undefined) has log solubility -2.73 (log10 mol/L). For CCCCNc1ccc(C(=O)OCCOCCOCCOCCOCCOCCOCCOCCOCCOC)cc1 [Benzonatate] the data give log solubility -5.579 (log10 mol/L). NC(=O)NNC(N)=O [Biurea] is reported with log solubility -2.696 (log10 mol/L). CCN(CCO)c1ccc(N=Nc2ccc([N+](=O)[O-])cc2[N+](=O)[O-])cc1 [2-((4-((2,4-Dinitrophenyl)azo)phenyl)ethylamino)ethanol] is reported with log solubility -5.699 (log10 mol/L). Cc1[nH]n(-c2ccc([N+](=O)[O-])cc2)c(=O)c1[N+](=O)[O-] has log solubility -1.9 (log10 mol/L).

For CC1=CCC(=O)O1 [alpha-Angelica lactone] the data give log solubility -0.293 (log10 mol/L). CCC1CCC2(CCC(CC)O2)O1 (centres undefined) [2,7-Diethyl-1,6-dioxaspiro[4.4]nonane] is reported with log solubility -1.846 (log10 mol/L). CN(C)C(=S)N(C)C [1,1,3,3-Tetramethyl-2-thiourea] has log solubility -1.389 (log10 mol/L). For CCOC(=O)[C@H](Cc1c[nH]c2ccccc12)N(C)C=O [Ethyl N-formyl-N-methyltryptophanate] the data give log solubility -2.27 (log10 mol/L). Listed for CCCCCCCCCCCCCCCCNC(=O)c1cccnc1 [N-Hexadecyl-3-pyridinecarboxamide]: log solubility -2.96 (log10 mol/L). Listed for CC(=O)OCCc1ccccc1 [2-Phenylethyl acetate]: log solubility -2.232 (log10 mol/L).

O=C(Nc1ccc2[nH]c(=O)[nH]c2c1)c1cc2ccccc2c(N=Nc2cc(Cl)ccc2Cl)c1O is reported with log solubility -7.462 (log10 mol/L). The entry for OC(=Nc1ccccc1)NC1CCCCC1 lists log solubility -3.16 (log10 mol/L). For O=C(Nc1ccc(NC(=O)c2cc3ccccc3c(N=Nc3cc(Cl)ccc3Cl)c2O)c(Cl)c1)c1cc2ccccc2c(N=Nc2cc(Cl)ccc2Cl)c1O the data give log solubility -7.869 (log10 mol/L). For CC(C)CN(CC(C)C)C(=O)COC(=O)c1ccccc1 [2-(Diisobutylamino)-2-oxoethyl benzoate] the data give log solubility -3.56 (log10 mol/L). Listed for CCCCCCCCCC(O)C(O)C(=O)O (centres undefined) [2,3-Dihydroxydodecanoic acid]: log solubility -3.521 (log10 mol/L). The entry for O=S(=O)(O)c1ccc(N=Nc2ccc(O)cc2O)cc1 [C.I. Acid Orange 6 parent] lists log solubility -2.168 (log10 mol/L).

The 2 lowest values of log solubility among the entries above:

structure (SMILES)	name	log solubility (log10 mol/L)
O=C(Nc1ccc(NC(=O)c2cc3ccccc3c(N=Nc3cc(Cl)ccc3Cl)c2O)c(Cl)c1)c1cc2ccccc2c(N=Nc2cc(Cl)ccc2Cl)c1O	n/a	-7.869
O=C(Nc1ccc2[nH]c(=O)[nH]c2c1)c1cc2ccccc2c(N=Nc2cc(Cl)ccc2Cl)c1O	n/a	-7.462

Values as listed in the OPERA 2.9 repository of K. Mansouri.